Measurements from PMC12785511, “Integrative Profiling for BBB Permeability Using Capillary Electrochromatography, Experimental Physicochemical Parameters, and Ensemble Machine Learning” (International Journal of Molecular Sciences, 2025).

Test: physchem

**Q.** Which logP does the source give for `CNC(=O)Oc1ccc2c(c1)[C@]1(C)CCN(C)[C@@H]1N2C` [physostigmine] here?
**A.** 1.69 ± 0.03

**Q.** And the logD (pH 7.4)?
**A.** 0.81
